Experiments:
[1] = test system: chymotrypsin-like activity of the core particle (CP; 20S); experiment: Inhibition of chymotrypsin-like peptidase activity of the proteasome core particle; settings: noncompetitive mechanism
[2] = test system: core proteasome activated by Rpt2 and Rpt5 tail peptides; experiment: Blocking activation of core proteasome chymotrypsin-like activity by Rpt2 and Rpt5 tail peptides; type: biochemical; settings: FIG. 1F
Excerpt: The grooves are utilized by Rpt2, Rpt3 and Rpt5 subunits that anchor the regulatory particle to the core particle (Lander, et al., 2009). The anchoring C-terminal tails of Rpt2 and Rpt5 subunits are responsible for core particle gate opening and activation (Lander, et al., 2009). Activation of the core by both Rpt2 and Rpt5 tails is affected by B1 (FIG. 2C). The groove accommodating the C-terminal tail of Rpt2 subunit may be a primary docking place for B1, or B1 may allosterically affect binding of Rpt2 C-terminal tail with an exceptionally high efficiency (FIG. 2D). In vitro reconstruction of the 26S proteasome assembly from the core particle (20S) and regulatory particle (19S) components is attenuated by the treatment with B1 (FIG. 2E).

Compound	Vmax, kinetic parameter of the inhibition of the chymotrypsin-like peptidase [1]	Prevention of activation of the core proteasome by Rpt5 tail peptide, compared with B1 [2]
COc1cc(CCCOC(=O)C2CCCCN2C(=O)C(=O)C2CCCCC2)cc(OC)c1OC (centres unmarked) [B1]	0.195 nanomoles of product per mg of proteasome per second	–
COc1cc(CCCCCOC(=O)C2CCCCN2C(=O)C(=O)C2CCCCC2)cc(OC)c1OC (centres unmarked) [B5]	–	at least as good as the parent B1 compound

From patent publication US10167259B2, “Allosteric inhibitors of proteasome and methods of use thereof” (THE BOARD OF REGENTS OF THE UNIVERSITY OF TEXAS SYSTEM, priority 2013, dated 2019)
